Measured values: US11945796B2, “Substituted pyridine derivatives as SARM1 inhibitors” (Nura Bio, Inc., priority 2020, dated 2024)

Protein sequences, listed by entry. Tags and fused reporters are not part of them. Residues count along the entry.
UniProt Q6SZW1, 50-724 limits assumed: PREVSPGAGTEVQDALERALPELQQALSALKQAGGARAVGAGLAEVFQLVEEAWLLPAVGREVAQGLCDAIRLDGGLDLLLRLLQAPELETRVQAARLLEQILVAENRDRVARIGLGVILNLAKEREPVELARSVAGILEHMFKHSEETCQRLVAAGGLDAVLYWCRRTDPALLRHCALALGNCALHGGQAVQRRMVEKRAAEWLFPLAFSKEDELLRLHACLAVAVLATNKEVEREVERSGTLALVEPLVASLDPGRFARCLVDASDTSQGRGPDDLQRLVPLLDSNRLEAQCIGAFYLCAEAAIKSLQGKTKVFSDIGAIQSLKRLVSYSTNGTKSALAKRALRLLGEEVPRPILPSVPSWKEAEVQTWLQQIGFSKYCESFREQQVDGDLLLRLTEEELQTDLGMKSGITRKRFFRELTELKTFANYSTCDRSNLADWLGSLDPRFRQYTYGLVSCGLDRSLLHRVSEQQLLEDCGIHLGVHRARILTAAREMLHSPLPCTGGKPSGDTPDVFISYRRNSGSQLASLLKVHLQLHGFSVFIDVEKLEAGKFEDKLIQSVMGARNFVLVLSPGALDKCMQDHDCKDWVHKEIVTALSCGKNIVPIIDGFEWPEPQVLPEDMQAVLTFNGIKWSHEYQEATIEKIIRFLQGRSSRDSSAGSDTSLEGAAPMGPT

Molecular target: human SARM1(50-724) (Homo sapiens, UniProt Q6SZW1)
Assay: SARM1 NADase biochemical assay (HPLC peak areas of NAD and NAM)
Details: read-out: SARM1 IC50; dose-response, 1:3 serial dilution from 100 μM; 40 nM SARM1, 0.3 mM NMN, 20 μM NAD, 60 min rt

SMILES: CCC(c1ccncc1)c1ccn(CC(F)(F)F)n1 (stereo not shown)
- IC50: 1 to 10 µM
